Apparent affinities of Ab-95 variants for a coronavirus HR2 peptide

Binding partner: SARS-CoV-2 spike HR2 peptide, sequence PDVDLGDISGINAS.

Parent scFv Ab-95: VH joined to VL by a (GGGGS)3 linker. Changes lie in the light chain CDRs alone.
VH: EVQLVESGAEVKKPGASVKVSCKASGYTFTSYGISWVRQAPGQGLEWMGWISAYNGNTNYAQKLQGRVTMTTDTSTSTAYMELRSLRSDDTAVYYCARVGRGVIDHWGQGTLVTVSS
VL: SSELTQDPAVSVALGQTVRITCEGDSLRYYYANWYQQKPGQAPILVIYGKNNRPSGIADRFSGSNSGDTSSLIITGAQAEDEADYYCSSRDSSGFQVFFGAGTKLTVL

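The starting antibody came from a phage panning campaign against this peptide. In library AAYL52, one, two or three CDR residues were substituted; doubles and triples were drawn at random. The assay is AlphaSeq: two haploid yeast populations carry antibody and antigen on their surface. The frequency of each diploid, read from paired DNA barcodes, reflects how well the two displayed proteins bind. The ratio of observed to expected reads was calibrated, replicate by replicate, on BCL2-family standards whose Kd was known from biolayer interferometry. The assay was run in three technical replicates.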

Variants are written as CDR1, CDR2 and CDR3 of the light chain (limits as in the source). Parent: EGDSLRYYYAN, GKNNRPS, SSRDSSGFQVF. All variants listed here change S93 of the VL, counted from its first residue. Values are apparent Kd, the geometric mean of the replicates that gave a signal; lower means stronger binding. "nd" means that the variant was in the library but no mating with the target was seen in any replicate; the authors take this as a sign of poor binding, and no number exists. Empty control strains, which show no peptide, gave a signal in 28% of pairings with library AAYL52; the median was 8.2 µM and 95% of these signals were weaker than 800 nM. No background was subtracted.

CDR-L1	CDR-L2	CDR-L3	Kd	detected
EGDSLRYYYAN	GKINRPS	SSRDSIQFQVF	4.1 µM	3 of 3
KGDSLRYYYAN	GKNNRPS	SSRDSVGNQVF	200 nM	3 of 3
EGDSLRYYYAN	GKNNRPS	HSRDSHGFVVF	120 nM	3 of 3
ERDSLRYYYAN	GKNNRPS	SSRDSMGFQVF	1.9 µM	1 of 3
EGDSLRYYYAN	GKNNRPT	SSRDSIGFQVF	110 nM	3 of 3
EGDSKRYYYVN	GKNNRPS	SSRDSMGFQVF	150 µM	1 of 3
EGDSLRYYYAN	GKLNRPS	SSRDSFGFQVR	nd	0 of 3
EGDSLRYYYEA	GKNNRPS	SSRDSQGFQVF	25 µM	2 of 3
EGDSLRYSYAN	GKNNRPS	SSRDIYGFQVF	450 nM	3 of 3
CGDSLRYYYAN	CKNNRPS	SSRDSVGFQVF	nd	0 of 3
EGDSLRYYYAN	GKNNRPS	SSRDSIRKQVF	900 nM	2 of 3
EGDSLRYYYNN	RKNNRPS	SSRDSVGFQVF	11 µM	1 of 3
EGDSLRYYYAN	GKNNGPS	SSRDSMGFQVT	nd	0 of 3
EGDSLRYYYAN	GKNGRPS	SSRDSGGFQVC	190 µM	1 of 3
EGDSLRYYYAN	GKNNRDF	SSRDSGGFQVF	22 µM	3 of 3
EGDSLRYYYAN	GCENRPS	SSRDSMGFQVF	26 µM	2 of 3
EGDSKRYYYAN	YKNNRPS	SSRDSCGFQVF	220 µM	1 of 3
EGDSLRYYYAN	GKNNRPS	TSRDSKGFQSF	370 nM	3 of 3
EGDSLRYYYAN	GKNPRPS	SCRDSMGFQVF	32 µM	1 of 3
EGDSLRYTYAN	GKNNRPS	SSRDVVGFQVF	1.7 µM	3 of 3
EGDSLRYYYAR	GKNNRPS	SSRDSAGFQVF	18 µM	3 of 3
EGDSLRYYYAN	GKWGRPS	SSRDSFGFQVF	20 µM	2 of 3
EGDSLRYYYAN	GKNNRPS	SEKDSRGFQVF	170 nM	3 of 3
EGDSLRYYYAN	GKNYRPS	SSRDSMGFQIF	3.5 µM	1 of 3
ELDSLRYYYAN	GKNNRPS	SSMDSNGFQVF	2.2 µM	1 of 3
EGDSLRYYPAN	GKNNRPS	SSRDSFIFQVF	67 nM	3 of 3
EGDSLRYNYHN	GKNNRPS	SSRDSVGFQVF	150 µM	2 of 3
EGDSLRYYYAN	GKNNRPS	SSPDTPGFQVF	7.2 µM	3 of 3
EGDSLRYYYAN	GKNNAPS	SSRDSEGFQVS	1.9 µM	3 of 3
EGDSLRYYTAS	GKNNRPS	SSRDSNGFQVF	610 nM	3 of 3
EGDSLRYYYAN	GKNNSPS	SSRHSDGFQVF	2.1 µM	2 of 3
EGDSLRYYYAN	GQNNRPS	SSNDSHGFQVF	410 nM	1 of 3
EGDSLRYYYAN	GKNNRPS	SSRDSMGFQVF	280 nM	3 of 3
EGDSLRYYYAK	GKNNRPS	SSVDSGGFQVF	21 µM	1 of 3
EGDSLRLYYAN	VKNNRPS	SSRDSPGFQVF	nd	0 of 3
EGDSLRYYYAN	GKNNRPS	SSRDSGGFFIF	3.5 µM	2 of 3
EGDSLRYYYAN	GKNNRPE	SSRDSLGFQIF	130 nM	3 of 3
EGDSLRYYYAN	GKNNRPS	SSRDKKGFQSF	2.9 µM	2 of 3
EGDSLPYYYAN	GKLNRPS	SSRDSEGFQVF	3.3 µM	1 of 3
EGDSLRYYYAN	GINNRPS	RSRDSDGFQVF	1.6 µM	3 of 3
TGDSLRYYYAN	GKNNRPS	SSRDSWGFQVF	190 nM	3 of 3
EGDSLRYYSAN	GKNNRPS	SSRDSWGFQSF	650 nM	3 of 3
EGDSDRYYYSN	GKNNRPS	SSRDSTGFQVF	220 nM	3 of 3
EGDSLRYYQAN	GKNNRVS	SSRDSEGFQVF	220 nM	3 of 3
EGDSLRYYYAN	GKNNRPS	SSVDSRGYQVF	240 nM	3 of 3
EGDALRYYYAN	GKNNRPS	SFRDSQGFQVF	81 nM	3 of 3
EGDSLRYYYNN	GKNNRPS	SSRDSCGGQVF	100 nM	3 of 3
EGDSLRYYYAN	GKNNRPS	SSRKSMGFQVH	nd	0 of 3
EEDSLRYYYAN	GKNNRPS	SSRDRNGFQVF	8.7 µM	1 of 3
EGDSLRYYYAN	GKNNRPS	SSRGSVGFQSF	110 nM	3 of 3
EGDSERYRYAN	GKNNRPS	SSRDSKGFQVF	1.0 µM	3 of 3
EGDSLRYYYAN	GKDNRPS	SSMDSVGFQVF	7.3 µM	1 of 3
EGDSTRYYYAN	YKNNRPS	SSRDSFGFQVF	nd	0 of 3
EGDSDRYYYAN	GKNNRPS	SARDSAGFQVF	26 µM	2 of 3
EGDSLRYYYAN	GKNNRPS	SSRDSQGFQVF	28 nM	3 of 3
EGDSLRYYYAN	GKNNRPH	MSRDSCGFQVF	200 nM	3 of 3
IGDSLRYYYAN	GKNNRPS	SSRYSQGFQVF	56 µM	1 of 3

Repeated from above, the 3 best binders with a signal in all replicates:

CDR-L1	CDR-L2	CDR-L3	Kd	detected
EGDSLRYYYAN	GKNNRPS	SSRDSQGFQVF	28 nM	3 of 3
EGDSLRYYPAN	GKNNRPS	SSRDSFIFQVF	67 nM	3 of 3
EGDALRYYYAN	GKNNRPS	SFRDSQGFQVF	81 nM	3 of 3

Reference: Engelhart et al. 2022, doi:10.1038/s41597-022-01779-4. File: FLAb, binding data.